According to US20260384449A1, “MACROCYCLIC AMINOPYRIDINE COMPOUNDS AS EGFR INHIBITORS” (published 2026):
Read-outs that look alike come from different tables or passages of the source.

By UniProt entry, the sequences of proteins in these tests, tags left out. Where a name states a change or a piece, a line headed by the entry shows the natural chain unless it says otherwise. Chains listed by the source or under a name are the forms on record and can include a tag or linker. Residues count along the entry.
UniProt P00533, 25-1210 C797S/L858R limits assumed: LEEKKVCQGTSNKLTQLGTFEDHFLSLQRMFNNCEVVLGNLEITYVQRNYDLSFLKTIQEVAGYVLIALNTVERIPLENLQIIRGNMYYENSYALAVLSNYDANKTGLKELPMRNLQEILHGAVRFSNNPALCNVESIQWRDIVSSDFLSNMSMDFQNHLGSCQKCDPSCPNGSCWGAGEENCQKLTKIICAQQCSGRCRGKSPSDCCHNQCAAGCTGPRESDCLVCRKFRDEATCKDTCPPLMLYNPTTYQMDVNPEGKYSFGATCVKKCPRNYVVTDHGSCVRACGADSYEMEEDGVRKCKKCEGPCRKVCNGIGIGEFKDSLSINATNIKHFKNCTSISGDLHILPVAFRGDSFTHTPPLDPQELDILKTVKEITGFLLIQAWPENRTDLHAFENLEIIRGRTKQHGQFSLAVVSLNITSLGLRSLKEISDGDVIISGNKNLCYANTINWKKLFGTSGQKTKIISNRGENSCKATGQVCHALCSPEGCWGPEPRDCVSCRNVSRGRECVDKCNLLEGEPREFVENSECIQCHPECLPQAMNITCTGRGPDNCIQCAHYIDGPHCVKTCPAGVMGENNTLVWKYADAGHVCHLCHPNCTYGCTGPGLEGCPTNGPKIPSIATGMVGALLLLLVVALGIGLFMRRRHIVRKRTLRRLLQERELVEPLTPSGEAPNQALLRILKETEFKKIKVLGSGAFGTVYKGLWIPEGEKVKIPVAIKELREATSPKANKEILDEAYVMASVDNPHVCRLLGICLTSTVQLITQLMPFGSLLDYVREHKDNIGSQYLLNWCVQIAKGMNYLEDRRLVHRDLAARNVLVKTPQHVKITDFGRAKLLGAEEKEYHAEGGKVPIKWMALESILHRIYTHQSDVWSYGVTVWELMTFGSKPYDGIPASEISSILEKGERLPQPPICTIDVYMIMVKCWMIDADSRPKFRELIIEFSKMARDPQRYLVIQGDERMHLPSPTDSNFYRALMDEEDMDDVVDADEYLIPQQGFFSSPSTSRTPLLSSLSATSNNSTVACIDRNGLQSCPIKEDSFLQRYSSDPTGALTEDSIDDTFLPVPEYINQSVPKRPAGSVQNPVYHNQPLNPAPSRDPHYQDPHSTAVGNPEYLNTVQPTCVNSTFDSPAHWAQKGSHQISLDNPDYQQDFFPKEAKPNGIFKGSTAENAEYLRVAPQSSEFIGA
UniProt P00533, 25-1210 T790M/C797S/L858R limits assumed: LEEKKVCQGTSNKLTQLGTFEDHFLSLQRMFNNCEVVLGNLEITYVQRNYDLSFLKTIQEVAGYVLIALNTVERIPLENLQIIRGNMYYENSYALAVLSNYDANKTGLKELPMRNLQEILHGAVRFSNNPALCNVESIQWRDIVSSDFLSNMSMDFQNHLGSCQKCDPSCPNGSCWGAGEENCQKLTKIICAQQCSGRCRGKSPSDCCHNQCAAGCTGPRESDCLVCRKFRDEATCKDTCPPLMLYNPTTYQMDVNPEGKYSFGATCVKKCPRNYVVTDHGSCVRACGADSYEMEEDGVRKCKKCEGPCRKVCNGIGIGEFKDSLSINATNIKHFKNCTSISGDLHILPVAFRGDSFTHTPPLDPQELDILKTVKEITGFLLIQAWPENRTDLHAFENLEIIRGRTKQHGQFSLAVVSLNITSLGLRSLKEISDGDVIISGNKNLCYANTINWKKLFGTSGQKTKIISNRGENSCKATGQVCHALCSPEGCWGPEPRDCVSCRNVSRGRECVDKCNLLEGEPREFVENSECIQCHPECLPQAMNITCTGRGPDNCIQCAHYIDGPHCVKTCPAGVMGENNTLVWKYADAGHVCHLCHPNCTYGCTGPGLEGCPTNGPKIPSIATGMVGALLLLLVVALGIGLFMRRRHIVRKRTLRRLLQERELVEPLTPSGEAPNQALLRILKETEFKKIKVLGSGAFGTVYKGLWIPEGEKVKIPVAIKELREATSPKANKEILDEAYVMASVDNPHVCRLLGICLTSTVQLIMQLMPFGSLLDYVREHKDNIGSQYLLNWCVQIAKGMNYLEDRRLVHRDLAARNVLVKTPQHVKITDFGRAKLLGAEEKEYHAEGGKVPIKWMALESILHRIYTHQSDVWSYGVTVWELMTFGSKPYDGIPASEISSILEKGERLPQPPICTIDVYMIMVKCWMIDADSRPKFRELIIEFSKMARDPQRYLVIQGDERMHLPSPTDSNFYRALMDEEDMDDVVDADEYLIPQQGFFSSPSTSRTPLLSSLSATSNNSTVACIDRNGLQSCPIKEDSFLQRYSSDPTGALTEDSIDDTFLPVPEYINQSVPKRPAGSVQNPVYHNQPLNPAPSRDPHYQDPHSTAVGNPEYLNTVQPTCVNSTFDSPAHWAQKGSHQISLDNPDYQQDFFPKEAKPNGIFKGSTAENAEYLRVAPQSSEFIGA
UniProt P00533, with tags, fused parts or gaps DEL746-750/C797S limits assumed: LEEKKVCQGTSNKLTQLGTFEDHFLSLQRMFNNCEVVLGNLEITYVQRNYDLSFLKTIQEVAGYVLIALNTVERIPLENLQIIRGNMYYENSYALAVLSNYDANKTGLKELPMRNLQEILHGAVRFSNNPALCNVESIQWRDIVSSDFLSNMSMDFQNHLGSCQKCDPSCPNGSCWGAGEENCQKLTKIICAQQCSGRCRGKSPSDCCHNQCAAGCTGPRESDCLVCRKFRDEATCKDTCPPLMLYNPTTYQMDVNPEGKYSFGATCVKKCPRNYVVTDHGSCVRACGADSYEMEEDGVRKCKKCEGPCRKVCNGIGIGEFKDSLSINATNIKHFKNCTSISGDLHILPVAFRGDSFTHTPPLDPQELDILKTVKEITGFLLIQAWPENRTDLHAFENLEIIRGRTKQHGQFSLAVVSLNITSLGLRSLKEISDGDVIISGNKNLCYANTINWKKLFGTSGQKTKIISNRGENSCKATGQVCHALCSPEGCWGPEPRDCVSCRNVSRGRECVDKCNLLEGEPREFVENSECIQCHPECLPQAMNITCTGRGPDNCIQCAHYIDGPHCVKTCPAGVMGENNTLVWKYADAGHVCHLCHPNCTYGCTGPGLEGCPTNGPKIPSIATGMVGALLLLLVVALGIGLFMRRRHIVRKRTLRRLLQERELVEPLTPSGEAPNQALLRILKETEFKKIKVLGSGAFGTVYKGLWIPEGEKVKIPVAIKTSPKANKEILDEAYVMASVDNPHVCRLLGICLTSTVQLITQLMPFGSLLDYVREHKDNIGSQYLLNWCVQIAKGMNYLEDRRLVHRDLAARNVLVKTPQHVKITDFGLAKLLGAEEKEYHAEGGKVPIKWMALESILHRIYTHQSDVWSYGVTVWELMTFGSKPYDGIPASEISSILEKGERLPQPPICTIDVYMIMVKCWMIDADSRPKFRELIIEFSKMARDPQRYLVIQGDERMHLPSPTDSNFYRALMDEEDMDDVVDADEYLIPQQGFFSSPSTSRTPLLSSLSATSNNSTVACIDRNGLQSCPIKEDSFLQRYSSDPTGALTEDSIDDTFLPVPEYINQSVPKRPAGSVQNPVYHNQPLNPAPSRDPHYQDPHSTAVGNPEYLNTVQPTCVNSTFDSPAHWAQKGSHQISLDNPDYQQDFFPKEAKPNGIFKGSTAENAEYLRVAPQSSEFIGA
UniProt P00533, with tags, fused parts or gaps DEL746-750/T790M/C797S limits assumed: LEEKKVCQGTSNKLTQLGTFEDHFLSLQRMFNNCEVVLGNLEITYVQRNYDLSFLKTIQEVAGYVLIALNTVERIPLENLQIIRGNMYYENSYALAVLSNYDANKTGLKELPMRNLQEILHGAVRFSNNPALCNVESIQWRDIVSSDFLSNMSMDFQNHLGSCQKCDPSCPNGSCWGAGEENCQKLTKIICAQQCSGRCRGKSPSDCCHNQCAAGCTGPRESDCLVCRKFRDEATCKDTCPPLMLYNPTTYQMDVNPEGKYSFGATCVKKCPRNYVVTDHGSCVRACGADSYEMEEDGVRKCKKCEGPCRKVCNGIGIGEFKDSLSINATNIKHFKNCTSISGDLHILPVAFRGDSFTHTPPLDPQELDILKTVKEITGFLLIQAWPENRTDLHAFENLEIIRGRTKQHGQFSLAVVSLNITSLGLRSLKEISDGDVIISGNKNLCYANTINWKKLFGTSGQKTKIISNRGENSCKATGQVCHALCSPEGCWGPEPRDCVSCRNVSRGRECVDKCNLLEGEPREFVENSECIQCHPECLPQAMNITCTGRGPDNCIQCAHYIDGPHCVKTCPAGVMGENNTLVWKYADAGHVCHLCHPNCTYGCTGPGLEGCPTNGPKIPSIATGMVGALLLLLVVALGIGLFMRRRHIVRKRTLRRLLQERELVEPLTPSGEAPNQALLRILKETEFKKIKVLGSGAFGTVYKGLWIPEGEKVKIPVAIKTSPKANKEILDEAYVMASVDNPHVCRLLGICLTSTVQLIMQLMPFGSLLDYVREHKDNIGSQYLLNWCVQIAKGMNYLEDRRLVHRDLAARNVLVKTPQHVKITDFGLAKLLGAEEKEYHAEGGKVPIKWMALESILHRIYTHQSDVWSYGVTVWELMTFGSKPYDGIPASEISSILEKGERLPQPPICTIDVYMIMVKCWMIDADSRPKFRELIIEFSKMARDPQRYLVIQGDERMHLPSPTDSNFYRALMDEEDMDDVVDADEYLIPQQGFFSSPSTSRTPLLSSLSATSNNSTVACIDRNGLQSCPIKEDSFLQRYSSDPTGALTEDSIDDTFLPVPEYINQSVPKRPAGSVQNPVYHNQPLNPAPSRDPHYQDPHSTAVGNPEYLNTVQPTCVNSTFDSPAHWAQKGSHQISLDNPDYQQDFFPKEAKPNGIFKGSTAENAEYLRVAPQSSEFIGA
UniProt P00533, 25-1210 limits assumed: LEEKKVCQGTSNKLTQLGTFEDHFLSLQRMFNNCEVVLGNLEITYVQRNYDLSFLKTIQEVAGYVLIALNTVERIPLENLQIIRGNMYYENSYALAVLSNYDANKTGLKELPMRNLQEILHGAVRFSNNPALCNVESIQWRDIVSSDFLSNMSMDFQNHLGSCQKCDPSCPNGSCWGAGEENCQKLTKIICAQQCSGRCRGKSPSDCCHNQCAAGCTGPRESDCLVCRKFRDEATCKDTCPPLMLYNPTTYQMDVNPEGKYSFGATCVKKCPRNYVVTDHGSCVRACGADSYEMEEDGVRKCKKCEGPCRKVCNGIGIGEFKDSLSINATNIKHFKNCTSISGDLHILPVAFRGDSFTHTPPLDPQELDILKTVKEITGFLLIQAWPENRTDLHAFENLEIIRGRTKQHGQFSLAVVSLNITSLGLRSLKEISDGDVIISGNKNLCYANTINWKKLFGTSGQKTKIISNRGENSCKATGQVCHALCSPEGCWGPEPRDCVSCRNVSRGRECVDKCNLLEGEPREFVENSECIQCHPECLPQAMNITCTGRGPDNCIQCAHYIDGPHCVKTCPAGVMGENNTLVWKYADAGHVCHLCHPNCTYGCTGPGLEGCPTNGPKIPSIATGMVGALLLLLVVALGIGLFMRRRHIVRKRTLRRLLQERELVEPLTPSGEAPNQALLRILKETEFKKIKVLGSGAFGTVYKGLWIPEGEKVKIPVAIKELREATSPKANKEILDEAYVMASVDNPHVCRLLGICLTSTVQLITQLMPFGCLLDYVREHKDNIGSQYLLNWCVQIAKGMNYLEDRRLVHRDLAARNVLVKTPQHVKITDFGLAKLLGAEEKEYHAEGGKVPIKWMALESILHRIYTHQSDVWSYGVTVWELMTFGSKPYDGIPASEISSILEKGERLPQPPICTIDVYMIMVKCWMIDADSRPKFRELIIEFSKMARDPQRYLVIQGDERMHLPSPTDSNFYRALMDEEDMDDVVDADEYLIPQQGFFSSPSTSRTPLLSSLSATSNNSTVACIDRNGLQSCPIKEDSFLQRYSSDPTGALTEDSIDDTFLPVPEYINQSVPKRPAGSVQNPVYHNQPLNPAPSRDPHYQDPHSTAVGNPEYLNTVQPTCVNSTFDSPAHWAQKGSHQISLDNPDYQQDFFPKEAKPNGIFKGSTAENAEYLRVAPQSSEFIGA

Assays:
[1] = target: EGFR D19TMCS (del19/T790M/C797S) (Homo sapiens, UniProt P00533, C797S/DEL746-750/T790M); assay: Biochemical EGFR kinase inhibition (Lance Ultra TR-FRET), del19/T790M/C797S; conditions: read-out: EGFR D19TMCS IC50
[2] = target: EGFR LRTMCS (L858R/T790M/C797S) (Homo sapiens, UniProt P00533, C797S/L858R/T790M); assay: Biochemical EGFR kinase inhibition (Lance Ultra TR-FRET), L858R/T790M/C797S; conditions: read-out: EGFR LRTMCS IC50
EGFR D19CS (del19/C797S) = EGFR D19CS (del19/C797S) (Homo sapiens, UniProt P00533, C797S/DEL746-750); assay: Biochemical EGFR kinase inhibition (Lance Ultra TR-FRET), del19/C797S; conditions: read-out: EGFR D19CS IC50
EGFR LRCS (L858R/C797S) = EGFR LRCS (L858R/C797S) (Homo sapiens, UniProt P00533, C797S/L858R); assay: Biochemical EGFR kinase inhibition (Lance Ultra TR-FRET), L858R/C797S; conditions: read-out: EGFR LRCS IC50
EGFR WT = EGFR WT (Homo sapiens, UniProt P00533); assay: Biochemical EGFR kinase inhibition (Lance Ultra TR-FRET), wildtype; conditions: read-out: EGFR WT IC50; ATP at Km

| IC50 ([1]; 1 mM ATP) | IC50 ([1]; ATP at Km) | IC50 ([2]; 1 mM ATP) | IC50 ([2]; ATP at Km) | IC50 (EGFR D19CS (del19/C797S); 1 mM ATP) | IC50 (EGFR D19CS (del19/C797S); ATP at Km) | IC50 (EGFR LRCS (L858R/C797S); 1 mM ATP) | IC50 (EGFR LRCS (L858R/C797S); ATP at Km) | IC50 (EGFR WT) | SMILES |
| --- | --- | --- | --- | --- | --- | --- | --- | --- | --- |
| < 10 nM | < 10 nM | < 10 nM | < 10 nM | < 10 nM | < 10 nM | 10 to 100 nM | < 10 nM | < 10 nM | Cc1nn(C)c2c1-c1nccc(n1)Nc1cc(c(C#Cc3cnn(C)c3C3CC3)cn1)NCC[C@H](C)O2 |
| 10 to 100 nM | < 10 nM | 10 to 100 nM | < 10 nM | > 1000 nM | > 1000 nM | > 1000 nM | > 1000 nM | 100 to 1000 nM | C[C@H]1CCOc2c(cnn2CC(F)(F)F)-c2nccc(n2)Nc2cc(c(C#Cc3cnn(CC(F)(F)F)c3)cn2)N1 |
| 10 to 100 nM | 10 to 100 nM | 100 to 1000 nM | < 10 nM | > 1000 nM | > 1000 nM | > 1000 nM | 100 to 1000 nM | > 1000 nM | C[C@H]1CCOc2c(cnn2C)-c2ncc(F)c(n2)Nc2cc(c(C#Cc3cnn(CC(F)(F)F)c3)cn2)N1 |
| < 10 nM | < 10 nM | < 10 nM | < 10 nM | 10 to 100 nM | < 10 nM | 100 to 1000 nM | < 10 nM | 10 to 100 nM | C[C@H]1CCOc2c(cnn2C)-c2nccc(n2)Nc2cc(c(C#Cc3cnn(CC(F)(F)F)c3)cn2)N1 |
| < 10 nM | < 10 nM | 10 to 100 nM | < 10 nM | 10 to 100 nM | < 10 nM | 100 to 1000 nM | < 10 nM | 10 to 100 nM | Cc1nn(C)c2c1-c1nccc(n1)Nc1cc(c(C#Cc3cccnc3)cn1)N[C@@H](C)CCO2 |
| < 10 nM | < 10 nM | < 10 nM | < 10 nM | 10 to 100 nM | 10 to 100 nM | 100 to 1000 nM | 10 to 100 nM | 10 to 100 nM | Cc1cnc(C#Cc2cnc3cc2N[C@@H](C)CCOc2c(cnn2C)-c2nccc(n2)N3)cn1 |
| 10 to 100 nM | < 10 nM | 10 to 100 nM | < 10 nM | > 1000 nM | 100 to 1000 nM | > 1000 nM | 10 to 100 nM | 100 to 1000 nM | Cn1ncc2c1OC[C@@H](F)CNc1cc(ncc1C#Cc1cnn(CC(F)(F)F)c1)Nc1ccnc-2n1 |
| < 10 nM | < 10 nM | < 10 nM | < 10 nM | < 10 nM | < 10 nM | 10 to 100 nM | < 10 nM | 10 to 100 nM | Cc1nn(C)c2c1-c1nccc(n1)Nc1cc(c(C#Cc3ccc(C(=O)N4CCC(O)CC4)cc3)cn1)N[C@@H](C)CCO2 |
| 10 to 100 nM | < 10 nM | 10 to 100 nM | < 10 nM | > 1000 nM | 100 to 1000 nM | > 1000 nM | 10 to 100 nM | 100 to 1000 nM | C[C@@H]1CCOc2c(cnn2C)-c2nccc(n2)Nc2cc(c(C#Cc3cnn(C)c3)cn2)N1 |
| < 10 nM | < 10 nM | < 10 nM | < 10 nM | 10 to 100 nM | 10 to 100 nM | 10 to 100 nM | < 10 nM | 10 to 100 nM | C[C@H]1CCNc2cc(ncc2C#Cc2cnn(CC(F)(F)F)c2)Nc2ccnc(n2)-c2cnn(C)c2O1 |
| < 10 nM | < 10 nM | 10 to 100 nM | < 10 nM | 100 to 1000 nM | 10 to 100 nM | 100 to 1000 nM | < 10 nM | 10 to 100 nM | Cc1nn(C)c2c1-c1nccc(n1)Nc1cc(c(C#Cc3ccc(N4CCOCC4)cc3)cn1)NCC[C@H](C)O2 |
| 10 to 100 nM | < 10 nM | 100 to 1000 nM | 10 to 100 nM | > 1000 nM | 100 to 1000 nM | > 1000 nM | > 1000 nM | 100 to 1000 nM | C[C@@H]1CCOc2c(cnn2C)-c2nccc(n2)Nc2cc(c(C#Cc3cnn(C4CC4(F)F)c3)cn2)N1 (stereo partly drawn) |
| < 10 nM | < 10 nM | 10 to 100 nM | < 10 nM | 100 to 1000 nM | 10 to 100 nM | > 1000 nM | 10 to 100 nM | 100 to 1000 nM | Cc1nn(C)c2c1-c1nccc(n1)Nc1cc(c(C#Cc3ccc(N4CCOCC4)cc3)cn1)N[C@@H](C)CCO2 |
| < 10 nM | < 10 nM | < 10 nM | < 10 nM | < 10 nM | < 10 nM | 10 to 100 nM | < 10 nM | < 10 nM | Cc1nn(C)c2c1-c1nccc(n1)Nc1cc(c(C#Cc3cnn(CCF)c3)cn1)N[C@@H](C)CCO2 |
